Article PMC3700404 (Chemistry & biology, 2008)

Sequences of proteins named here, by UniProt entry; tags and fusion partners are left off.
UniProt P34972, whole entry: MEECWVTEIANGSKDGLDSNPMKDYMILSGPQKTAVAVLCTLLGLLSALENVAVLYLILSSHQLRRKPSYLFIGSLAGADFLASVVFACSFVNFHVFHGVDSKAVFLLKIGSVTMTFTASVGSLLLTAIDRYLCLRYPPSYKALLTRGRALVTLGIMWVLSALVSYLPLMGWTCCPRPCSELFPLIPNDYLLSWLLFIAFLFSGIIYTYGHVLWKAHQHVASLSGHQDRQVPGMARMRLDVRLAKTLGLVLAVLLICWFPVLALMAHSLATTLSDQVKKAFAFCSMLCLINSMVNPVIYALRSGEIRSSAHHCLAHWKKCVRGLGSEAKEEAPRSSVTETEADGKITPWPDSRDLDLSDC
UniProt P34972, whole entry C257A: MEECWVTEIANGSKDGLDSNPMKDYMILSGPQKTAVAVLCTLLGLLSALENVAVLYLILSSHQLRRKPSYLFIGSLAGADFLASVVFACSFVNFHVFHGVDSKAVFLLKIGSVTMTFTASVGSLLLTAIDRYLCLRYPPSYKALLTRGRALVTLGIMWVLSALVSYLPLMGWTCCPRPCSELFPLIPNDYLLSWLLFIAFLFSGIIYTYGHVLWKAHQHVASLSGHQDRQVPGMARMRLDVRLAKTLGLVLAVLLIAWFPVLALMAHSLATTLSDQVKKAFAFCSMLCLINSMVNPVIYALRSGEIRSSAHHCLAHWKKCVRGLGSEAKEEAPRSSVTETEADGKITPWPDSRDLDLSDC
UniProt P34972, whole entry C257S: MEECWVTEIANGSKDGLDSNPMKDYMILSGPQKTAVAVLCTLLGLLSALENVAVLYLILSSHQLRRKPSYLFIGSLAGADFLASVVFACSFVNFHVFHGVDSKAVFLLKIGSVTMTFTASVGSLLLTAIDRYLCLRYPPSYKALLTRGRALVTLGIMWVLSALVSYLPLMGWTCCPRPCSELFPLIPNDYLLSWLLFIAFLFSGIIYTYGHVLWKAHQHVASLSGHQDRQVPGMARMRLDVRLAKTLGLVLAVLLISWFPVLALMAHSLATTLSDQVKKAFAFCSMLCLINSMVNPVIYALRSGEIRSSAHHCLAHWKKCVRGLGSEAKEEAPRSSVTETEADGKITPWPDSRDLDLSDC
UniProt P21554, whole entry K192A: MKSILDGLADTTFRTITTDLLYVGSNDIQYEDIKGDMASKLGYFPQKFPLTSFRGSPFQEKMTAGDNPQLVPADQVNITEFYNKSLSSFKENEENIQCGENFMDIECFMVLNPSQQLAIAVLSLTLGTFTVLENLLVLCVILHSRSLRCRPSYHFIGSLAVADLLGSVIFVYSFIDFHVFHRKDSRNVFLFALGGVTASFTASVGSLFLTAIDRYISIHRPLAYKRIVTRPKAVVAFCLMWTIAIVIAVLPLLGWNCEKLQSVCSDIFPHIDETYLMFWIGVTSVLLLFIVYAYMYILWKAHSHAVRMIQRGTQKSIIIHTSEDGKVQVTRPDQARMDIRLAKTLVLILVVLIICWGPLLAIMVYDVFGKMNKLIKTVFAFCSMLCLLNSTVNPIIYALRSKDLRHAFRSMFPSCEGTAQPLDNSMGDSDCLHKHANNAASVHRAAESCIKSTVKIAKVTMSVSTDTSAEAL

Legend:
[1] = biological target: WT hCB2 receptor (Homo sapiens, UniProt P34972); experiment: Saturation-binding assay, WT hCB2 membranes; details: HEK293 membranes, mean (95% CI)
[2] = biological target: hCB2 C6.47(257)A mutant receptor (Homo sapiens, UniProt P34972, C257A); experiment: Saturation-binding assay, hCB2 C6.47; details: HEK293 membranes, mean (95% CI)
[3] = biological target: hCB2 C6.47(257)S mutant receptor (Homo sapiens, UniProt P34972, C257S); experiment: Saturation-binding assay, hCB2 C6.47; details: HEK293 membranes, mean (95% CI)
[4] = biological target: hCB1 K3.28(192)A mutant receptor (Homo sapiens, UniProt P21554, K192A)

CCCCCCC(C)(C)c1ccc([C@@H]2C[C@H](O)CC[C@H]2CCCO)c(O)c1 [[^3H]-CP55940]
Bmax [1]: 1.19 (1.01–1.37) pmol/mg
Bmax [2]: 0.96 (0.84–1.08) pmol/mg
Bmax [3]: 1.07 (0.95–1.18) pmol/mg
saturable binding of radioligand [4]: no saturable binding
